Measurements as given in PubChem BioAssay AID687008 (The Scripps Research Institute Molecular Screening Center, 2013).
Only a part is listed here, and it is no random draw. Calls of active or inactive are those of the source.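 The calls were made as follows: active = mean inhibition over three repeats above a set limit taken from the earlier primary screen (cut at about 38% in these data); inactive = the rest.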

Sequences of proteins named here, by UniProt entry; tags and fusion partners are left off.
UniProt P24468, whole entry: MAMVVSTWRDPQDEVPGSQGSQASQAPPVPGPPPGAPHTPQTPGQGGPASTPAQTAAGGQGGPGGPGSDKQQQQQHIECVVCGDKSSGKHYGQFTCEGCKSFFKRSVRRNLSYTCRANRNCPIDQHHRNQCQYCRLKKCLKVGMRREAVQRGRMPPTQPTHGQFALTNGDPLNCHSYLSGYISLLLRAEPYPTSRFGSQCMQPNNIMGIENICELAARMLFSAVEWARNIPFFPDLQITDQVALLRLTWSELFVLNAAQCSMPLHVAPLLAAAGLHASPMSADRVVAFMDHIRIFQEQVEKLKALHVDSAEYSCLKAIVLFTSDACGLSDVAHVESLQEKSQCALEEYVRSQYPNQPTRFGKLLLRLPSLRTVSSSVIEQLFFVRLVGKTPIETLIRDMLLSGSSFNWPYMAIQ

Target: COUP transcription factor 2 (Homo sapiens) (UniProt P24468)
Experiment: retest of COUP-TFII reporter suppressors – cell-based, luciferase reporter, HEK293, triplicate, confirmation (AID 687008);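 also: 100% = cells given the luciferase reporter alone without the COUP-TF2 vector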
Conditions: HEK293 NGFI-A luciferase reporter, luminescence; at 8.5 µM; stronger effect = higher value

Q: How did the inhibition turn out when `O=[N+]([O-])c1cc([N+](=O)[O-])c(Nc2ccc(Cl)cc2)c([N+](=O)[O-])c1` was run?
A: inactive: 19.2%
